Experimental findings from patent US20020052313A1 are described below.

Sequences of proteins named here, by UniProt entry; tags and fusion partners are left off. Residues count along the entry.
UniProt P04629, 33-796: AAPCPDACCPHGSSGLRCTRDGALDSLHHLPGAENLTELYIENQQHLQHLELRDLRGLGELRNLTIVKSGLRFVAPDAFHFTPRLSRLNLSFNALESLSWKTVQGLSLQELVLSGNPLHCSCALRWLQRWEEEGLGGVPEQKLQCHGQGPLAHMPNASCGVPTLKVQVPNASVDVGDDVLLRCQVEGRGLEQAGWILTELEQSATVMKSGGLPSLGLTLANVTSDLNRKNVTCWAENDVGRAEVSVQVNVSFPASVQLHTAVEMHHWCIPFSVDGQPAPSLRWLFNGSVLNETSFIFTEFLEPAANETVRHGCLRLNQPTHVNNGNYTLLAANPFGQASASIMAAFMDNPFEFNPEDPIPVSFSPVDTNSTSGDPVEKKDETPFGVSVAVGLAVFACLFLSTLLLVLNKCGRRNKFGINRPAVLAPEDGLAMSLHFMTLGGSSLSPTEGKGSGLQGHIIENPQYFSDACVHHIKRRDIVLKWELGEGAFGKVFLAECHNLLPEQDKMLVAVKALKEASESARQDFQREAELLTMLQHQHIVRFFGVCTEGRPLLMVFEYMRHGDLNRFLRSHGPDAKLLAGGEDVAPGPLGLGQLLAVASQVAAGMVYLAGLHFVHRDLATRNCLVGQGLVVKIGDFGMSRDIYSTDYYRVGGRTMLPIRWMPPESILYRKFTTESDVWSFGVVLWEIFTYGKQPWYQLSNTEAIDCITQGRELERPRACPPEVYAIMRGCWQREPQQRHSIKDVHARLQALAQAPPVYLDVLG

Test [1] has as its target p140^trk-A (human, on B lymphocytes) (human) (UniProt P04629). Nature of the test: equilibrium binding of 125I-NGF, Scatchard analysis, small resting human B lymphocytes after acid (pH 3.0) treatment, high-affinity receptors.
Test [2] has the same target. Nature of the test: equilibrium binding of 125I-NGF, Scatchard analysis, large (in vivo activated) human tonsil B cells, high-affinity class of sites.

A word on the Kd: it is the equilibrium constant for the complex coming apart. A low value points to higher affinity. As to “^125I-NGF (Nerve Growth Factor, radio-iodinated, Amersham) (ligand)”, in test [1], the Kd amounted to 0.17 nM and the binding sites/cell (binding sites/cell) is 90000. In test [2], the Kd stood at 0.03 nM and the binding sites/cell is 30000 sites/cell.
